# Earlier results in patent publication US20090186081A1, “Disintegrating Loadable Tablets” (LifeCycle Pharma A/S, priority 2006, published 2009).
# Settings: Table 1, Poorly-Soluble Drug Candidates
structure (smiles),measurement,value
CCC(=O)N(c1ccccc1)C1CCN(CCc2ccccc2)CC1,Solubility In Water,Sparingly

# Only a part of the results on these compounds is given; other tests are left out.
